{
  "source": "patent US20130142847A1",
  "about": "“S-ADENOSYLMETHIONINE FORMULATIONS WITH ENHANCED BIOAVAILABILITY” (Methylation Sciences, Inc., priority 2009, published 2013)",
  "key": {"[1]": {"system": "Caco-2 cell monolayers", "assay": "24 hour resistance recovery test (Caco-2 cell recovery post treatment)", "assay_type": "cell-based, human", "conditions": "SAMe 2 mM alone, listed as SAMe control", "procedure": "As part of these in vitro studies, the degree of Caco-2 cell recovery (as observed by degree of permeability and cell attachment 24 hours post treatment with each tight junction modulator) was also investigated. This 24 hour resistance recovery test is an indirect measure of epithelial cell disruption and data supporting a trend toward less in vitro disruption may be associated with less impact in vivo."}, "[2]": {"system": "Caco-2 cell monolayers", "assay": "Caco-2 permeability of SAMe in the presence of tight junction modulators (Examples 3a, 3c)"}, "[3]": {"system": "Caco-2 cell monolayers", "assay": "Permeability of SAMe across Caco-2 cell monolayers (Example 3)", "conditions": "for Papp_a-b Apical to Basal: apical to basolateral; for Papp_b-a Basal to Apical: basolateral to apical"}, "[4]": {"conditions": "HBSS pH 7.4, 120 minute incubation, SAMe salt 2 mM"}},
  "note": "Where “and” joins values, the source holds several entries; their conditions need not be identical. Identical values can stand only once.",
  "data": [
    {"substance": "adenosylmethionine disulfate-p-toluenesulfonate [SAMe disulfate tosylate]", "values": [
      {"measurement": "TEER Resist. 24 hour post assay", "setting": "[1]", "result": "2280 ohms and 2181 ohms and 1440 ohms and 1975 ohms and 1871 ohms and 1740 ohms"},
      {"measurement": "Fold Transport Increase", "setting": "[2]; SAMe 2 mM alone (Table 7)", "result": 1, "unit": "X"},
      {"measurement": "Fold Transport Increase", "setting": "[2]; SAMe 2 mM alone, run 2", "result": 1, "unit": "X"},
      {"measurement": "Permeability Coefficient", "setting": "[2]; SAMe 2 mM alone, run 2", "result": 0.14, "unit": "×10⁻⁶ cm/s"},
      {"measurement": "Fold Transport Increase", "setting": "[2]; SAMe 2 mM alone, run 3", "result": 1, "unit": "X"},
      {"measurement": "Permeability Coefficient", "setting": "[2]; SAMe 2 mM alone, run 3", "result": 1.6, "unit": "×10⁻⁶ cm/s"},
      {"measurement": "Fold Transport Increase", "setting": "[2]; SAMe 2 mM alone, run 4", "result": 1, "unit": "X"},
      {"measurement": "Permeability Coefficient", "setting": "[2]; SAMe 2 mM alone, run 4", "result": 1.6, "unit": "×10⁻⁶ cm/s"},
      {"measurement": "Papp_a-b Apical to Basal", "setting": "[3]; Calcium-free medium", "result": 9.6, "unit": "×10⁻⁶ cm/s"},
      {"measurement": "Papp_b-a Basal to Apical", "setting": "[3]; Calcium-free medium", "result": 6.48, "unit": "×10⁻⁶ cm/s"},
      {"measurement": "Papp_a-b Apical to Basal", "setting": "[3]; [4]", "result": 0.41, "unit": "×10⁻⁶ cm/s"},
      {"measurement": "Papp_b-a Basal to Apical", "setting": "[3]; [4]", "result": 0.5, "unit": "×10⁻⁶ cm/s"}
    ]}
  ]
}
